We go through one molecule from ChEMBL document CHEMBL4765234, “The Discovery, Preclinical, and Early Clinical Development of Potent and Selective GPR40 Agonists for the Treatment of Type 2 Diabetes Mellitus (LY2881835, LY2922083, and LY2922470)” (J Med Chem, 2016).

Sequences of proteins named here, by UniProt entry; tags and fusion partners are left off.
UniProt O14842, whole entry: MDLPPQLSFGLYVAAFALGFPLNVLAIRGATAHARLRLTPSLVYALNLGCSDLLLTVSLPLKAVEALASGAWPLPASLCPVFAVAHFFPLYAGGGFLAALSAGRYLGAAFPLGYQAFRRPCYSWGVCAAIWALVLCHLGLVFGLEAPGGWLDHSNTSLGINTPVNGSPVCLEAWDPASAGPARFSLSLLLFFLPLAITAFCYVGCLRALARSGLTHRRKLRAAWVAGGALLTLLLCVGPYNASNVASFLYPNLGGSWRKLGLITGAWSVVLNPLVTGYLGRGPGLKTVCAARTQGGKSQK

Activity calls are given as the source filed them. No cut-off for these calls is given here.

For this experiment, the target named is Free fatty acid receptor 1 (Homo sapiens, UniProt O14842). Briefly: Displacement of [3H]-(S)-3-(isoxazol-3-yl)-3-(4-((2-phenyl-[1,2,4]triazolo[1,5-a]pyridin-6-yl)methoxy)phenyl)propanoic acid from human recombinant full-length GPR40 expressed in human HEK293 cells assessed as dissociation constant at 1.37 to 1000 nM measured after 180 mins by radioligand competitive assay. It is filed as cell-based. Particulars: dose 1.37-1000 nM.

Consider `Cc1cc(OCCCS(C)(=O)=O)cc(C)c1-c1cccc(COc2ccc3c(c2)OC[C@H]3CC(=O)O)c1`, for which the result was inactive.
